Earlier results in US10413482B2, “Delamination resistant pharmaceutical glass containers containing active pharmaceutical ingredients” (Corning Incorporated, priority 2011, dated 2019).

Tested on: WISH cells and Vesicular Stomatitis virus
Conditions: reference standard calibrated against WHO natural interferon beta standard

Interferon beta-1a: 166 amino acid glycoprotein produced in Chinese Hamster Ovary cells
specific activity (antiviral activity): approximately 270 million international units (MIU) of antiviral activity per mg
